# Ab-14 heavy chain CDR variants: yeast mating affinities

The measurements come from Li et al. 2023 (doi:10.1038/s41467-023-39022-2) through the FLAb antibody collection.

Antigen: PDVDLGDISGINAS, a 14-residue peptide of the SARS-CoV-2 spike HR2 region.

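The starting antibody came from a phage panning campaign against this peptide. Designed CDR sequences, proposed from the first random library and measured here. Their group label is 14H_GP_HC (GP: Gaussian process model; HC: hill climbing; a sequence that several methods proposed may carry one label only). Affinity was read by AlphaSeq, a pooled yeast mating assay with surface-displayed partners. The frequency of each diploid, read from paired DNA barcodes, reflects how well the two displayed proteins bind. The ratio of observed to expected reads was calibrated, replicate by replicate, on BCL2-family standards whose Kd was known from biolayer interferometry. The assay was run in six technical replicates.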

Ab-14 is the parent antibody, in scFv form: VH, then a 15-residue (Gly4Ser)3 linker, then VL. The light chain is unchanged in all variants.
VH: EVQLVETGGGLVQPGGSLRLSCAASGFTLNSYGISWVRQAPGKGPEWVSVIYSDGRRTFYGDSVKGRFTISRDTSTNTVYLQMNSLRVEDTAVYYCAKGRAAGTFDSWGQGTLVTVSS
VL: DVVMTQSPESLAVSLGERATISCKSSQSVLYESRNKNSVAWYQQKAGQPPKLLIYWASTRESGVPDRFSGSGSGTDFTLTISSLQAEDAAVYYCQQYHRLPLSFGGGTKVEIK

Substitutions are numbered in sequence along the VH above, starting at 1 (not Kabat).
The read-out is the apparent dissociation constant on a log10 scale (nM): the lower, the stronger.
An entry "n.d." has no value in the source: the pair was not observed among the diploids in that replicate. This suggests poor binding but is not conclusive.
Of ten entries with the parent sequence, four were seen in most replicates (averages 0.34 to 2.37), three in one and three in none, so single entries are noisy.

changes,"replicates, log10 nM",empty controls
S31N+S53A+F105L,0.88 1.13 0.36 -0.14 0.63 0.83,0/18
G61D+R100A+A101E,0.59 0.90 0.71 0.30 0.48 0.80,0/18
T28S+G61D+R100T+A101L,-0.04 -0.38 -0.30 -0.29 -0.15 -0.09,1/18 (3.13)
G61D+S63D+R100Q+A101I,n.d. 0.03 n.d. 1.07 0.11 0.06,0/18
G26E+S53A+D106K,n.d. n.d. n.d. n.d. n.d. n.d.,0/18
S31N+G61A+R100Q+A101L,1.75 0.32 0.30 -0.21 -0.16 0.18,1/18 (2.37)
S31E+T58A+G61T,0.82 0.51 0.31 0.31 0.27 0.36,0/18
S31D+F59Y,0.99 1.36 1.15 n.d. 0.72 n.d.,0/18
T28K+S31D+G61I+A101L,n.d. 0.75 1.74 1.07 0.59 1.55,0/18
T28S+G61S+R100H+A102G,1.22 0.84 0.44 0.77 0.37 0.79,0/18
T28Q+S31D+G61S+S63H+R100K,1.27 1.67 1.45 0.93 1.24 1.34,1/18 (2.42)
N30D+S53A+A101I,-0.11 0.00 -0.11 -0.27 -0.43 -0.32,0/18
G61D+S63N+R100Q+A101V,n.d. 0.57 0.74 1.22 0.80 0.40,0/18
S31E+S63D+R100E+D106K,1.04 0.97 0.93 0.60 1.51 1.00,2/18 (3.02)
T28S+S31E+R100G+S107R,0.83 0.49 0.64 0.86 0.71 0.73,1/18 (1.52)
T28D+G61I+A101Q+S107T,n.d. 1.36 1.34 n.d. 1.00 2.25,0/18
S31E+G61S+R100Q+A101L,-0.29 -0.31 -0.37 -0.05 -0.22 -0.11,1/18 (3.46)
T28V+S31E+G61A+A101D,1.39 1.39 1.58 0.99 1.55 1.28,0/18
T28S+S31E+F59M+A101C,1.25 0.99 0.52 0.67 0.80 0.64,0/18
T28D+R100E+T104I,n.d. n.d. n.d. n.d. n.d. n.d.,0/18
T28Q+R56Q,0.96 1.97 1.75 1.74 1.57 1.87,0/18
T28D+G103W+F105Y,n.d. n.d. n.d. n.d. n.d. n.d.,1/18 (2.23)
S31E+A102S+G103V+S107Q,n.d. n.d. 1.42 0.98 n.d. 1.49,0/18
G26K+S31E+G61S+A101C,0.70 0.63 0.47 0.28 0.67 0.25,0/18
T28R+G61V+R100Q+A101L,n.d. n.d. n.d. n.d. n.d. n.d.,0/18
T28N+G61H+R100Q+A101L,n.d. n.d. n.d. n.d. n.d. n.d.,0/18
S31E+T58R+G61T+A101Q,1.05 0.48 -0.09 -0.23 0.20 0.66,0/18
T28G+S31E+G61S+R100Q+A101P,0.38 0.17 -0.07 -0.01 -0.23 0.34,0/18
S31D+G61D+D106T,n.d. n.d. n.d. n.d. n.d. n.d.,0/18
T28S+S31M+G61I,n.d. n.d. 1.40 2.13 2.05 n.d.,0/18
G26L+T28E+S31E+G61R+A101T,n.d. n.d. 1.24 1.34 2.32 2.18,1/18 (2.43)
N30E+S53A+S63D+D106K,2.42 1.67 1.94 0.04 1.60 n.d.,0/18
S31D+A101M+D106K,n.d. n.d. n.d. n.d. n.d. n.d.,0/18
T28S+S31E+G61C+S107Q,n.d. n.d. n.d. n.d. n.d. n.d.,0/18
T28L+S31N+G61D+R100Q+A101L,0.51 1.57 0.61 0.34 0.50 1.75,0/18
S53A+F105N+S107T,n.d. n.d. n.d. n.d. n.d. n.d.,0/18
S31D+D106T+S107D,n.d. n.d. n.d. n.d. n.d. n.d.,1/18 (0.91)
T28Q+F59V+S63A,1.96 n.d. n.d. 1.91 3.09 1.61,0/18
S31N+R56K+G61S+R100K,-0.03 -0.98 0.38 -0.76 -1.15 -0.64,0/18
N30D+S53A+D106W,n.d. n.d. n.d. n.d. n.d. n.d.,0/18
T28H+G61I+A101V,n.d. n.d. 1.55 n.d. 2.66 n.d.,1/18 (2.13)
N30D+S31R+S53A+A101L,0.13 -0.25 -0.07 -0.35 -0.33 -0.17,0/18
G61T+R100M+A101W,n.d. 0.92 n.d. n.d. n.d. n.d.,0/18
N30E+S53A+S63G+D106K,n.d. n.d. n.d. n.d. n.d. n.d.,0/18
T28N+G61S+T104F,n.d. 2.70 2.00 1.10 2.43 1.95,1/18 (1.22)
T28G+S31E+G61A+A101N,0.16 0.19 0.12 0.12 0.31 0.41,0/18
T28G+G61S+R100Q+A101E,-0.21 -0.49 -0.49 -0.41 -0.05 -0.10,1/18 (2.22)
T28H+S31D+R100T,n.d. n.d. n.d. n.d. n.d. n.d.,0/18
S31E+D106N+S107T,n.d. -0.11 n.d. -0.35 0.72 0.05,0/18
S31E+D106T+S107C,n.d. n.d. n.d. n.d. n.d. n.d.,0/18

The range of this assay differs from that of the first round, and the authors advise against merging the two.
In the paper, a design with two or fewer of six values counts as a poor binder.
Nonspecific signal, from three strains lacking the peptide, appeared in 1% of pairings of all heavy chain designs, centred on 2.08 (5% of these signals below 0.84); values are not corrected for it. The control count says in how many pairings with the empty strains this scFv gave a signal, with their mean in brackets.